Tests used:
[1] = HPLC quantification of caspase inhibitor in stabilization reagent before and after gamma irradiation; type: physicochemical
Experimental: Caspase inhibitor (Q-VD-OPh) was dissolved and diluted in DMSO for generation of a standard curve. Concentrations of 7.5, 15, 30 and 60 μg/ml were used to generate the standard curve.
Stabilization reagents containing a mixture of caspase inhibitor, EDTA, DMPA and PEG were tested before and after gamma irradiation. Unique peaks for caspase inhibitor were identified and compared to the standard curve for total quantification of caspase inhibitor. The concentration of caspase inhibitor was determined before and after irradiation, and these concentrations were compared for relative quantification.
For the production of PAXgene Blood ccfDNA Alpha blood collection tubes (Alpha BCT), BD standard tubes for 10 ml blood draw were filled with 1.3-1.7 ml ccfDNA stabilization reagent. The exemplary stabilization reagents tested comprised a mixture of caspase inhibitor (Q-VD-OPh), K2EDTA, DMPA, PEG300 and PEG10000, according to PCT/EP2015/055699. A vacuum was applied to the tubes to allow for a 10.25 ml blood draw. Tubes were sterilized by gamma irradiation using Cobalt-60 as energetic gamma ray source in a range of 5 to 35 kGy. […]
Stabilization reagents were produced with or without the addition of radical scavengers and sterilized in bulk by gamma irradiation. The caspase inhibitor concentration was measured by HPLC before and after irradiation to determine the effect of scavenger addition on caspase inhibitor degradation during sterilization by gamma irradiation.
Stabilization reagents according to PCT/EP2015/055699 were produced with or without the addition of radical scavengers in different concentrations and with different concentrations of caspase inhibitor. PAXgene Blood ccfDNA Alpha tubes were produced by filling 1.7 ml of the respective stabilization reagent into a standard Vacutainer. Tubes were sterilized by gamma irradiation with different energy levels. The caspase inhibitor concentration was measured by HPLC before and after irradiation (see Table 7 below).

[2] = test system: ccfDNA level in whole blood (66 bp and 500 bp fragments of the 18S rDNA gene); test: ccfDNA stabilization in stored whole blood, real time PCR of 18S rDNA fragments in plasma; details: 6 days at room temperature
[3] = scavenger 1 mg/ml, casp-inh. 5 μM, 10 kGy

SMILES | HPLC Testing [C-Inh] [1, 3] [µg/mL] | HPLC Testing [C-Inh] ([1]; scavenger 2 mg/ml, casp-inh. 5 μM, 0 kGy) [µg/mL] | HPLC Testing [C-Inh] ([1]; scavenger 10 mg/ml, casp-inh. 5 μM, 30 kGy) [µg/mL] | HPLC Testing [C-Inh] ([1]; scavenger 0.2 mg/ml, casp-inh. 5 μM, 10 kGy) [µg/mL] | HPLC Testing [C-Inh] ([1]; scavenger 0.5 mg/ml, casp-inh. 5 μM, 0 kGy) [µg/mL] | protection of ccfDNA stabilization against gamma irradiation (x fold change of 66 bp and 500 bp fragments) ([2]; 0.5, 1.0, 2.0 and 4.0 mg/ml in Alpha tubes, irradiation up to 30 kGy, FIG. 8) | effect on stabilization of extracellular nucleic acids (x fold change of 66 bp and 500 bp fragments) ([2]; 0.5, 1.0, 2.0 and 4.0 mg/ml in non-irradiated (0Gy) Alpha tubes, FIG. 8) | change of copy numbers (x fold change) of 66 bp and 500 bp fragments of the 18S rDNA gene ([2]; scavenger 2 mg/ml in non-irradiated reagent, 8 donors, FIG. 3) | HPLC Testing [C-Inh] ([1]; scavenger 2 mg/ml, casp-inh. 15 μM, 20 kGy) [µg/mL]
O=C1O[C@H]([C@@H](O)CO)C(O)=C1O [Ascorbic acid] | 12.7 | 19.4 | 13.2 | – | – | – | – | – | –
N[C@@H](CCC(=O)N[C@@H](CS)C(=O)NCC(=O)O)C(=O)O [Glutathione] | 16.8 | – | – | 15.7 | 18.7 | – | – | – | –
CC(=O)N[C@@H](CS)C(=O)O [N-acetyl-L-cysteine] | – | – | – | – | – | excellent protection | does not interfere with the stabilization of extracellular nucleic acids | possible without affecting the ccfDNA stabilization characteristics | 46.3

Reference: patent US11203777B2, “Method of preparing sterilized compositions for stabilization of extracellular nucleic acids” (Qiagen GmbH, priority 2015, dated 2021)
